Data from patent US9139566B2, “Fluorine-18 and carbon-11 labeled radioligands for positron emission tomography (PET) imaging for LRRK2” (Genentech, Inc., priority 2011, dated 2015).

Sequences of proteins named here, by UniProt entry; tags and fusion partners are left off. A change or cut given only in a name is not applied to a line headed by its entry.
UniProt Q5S007: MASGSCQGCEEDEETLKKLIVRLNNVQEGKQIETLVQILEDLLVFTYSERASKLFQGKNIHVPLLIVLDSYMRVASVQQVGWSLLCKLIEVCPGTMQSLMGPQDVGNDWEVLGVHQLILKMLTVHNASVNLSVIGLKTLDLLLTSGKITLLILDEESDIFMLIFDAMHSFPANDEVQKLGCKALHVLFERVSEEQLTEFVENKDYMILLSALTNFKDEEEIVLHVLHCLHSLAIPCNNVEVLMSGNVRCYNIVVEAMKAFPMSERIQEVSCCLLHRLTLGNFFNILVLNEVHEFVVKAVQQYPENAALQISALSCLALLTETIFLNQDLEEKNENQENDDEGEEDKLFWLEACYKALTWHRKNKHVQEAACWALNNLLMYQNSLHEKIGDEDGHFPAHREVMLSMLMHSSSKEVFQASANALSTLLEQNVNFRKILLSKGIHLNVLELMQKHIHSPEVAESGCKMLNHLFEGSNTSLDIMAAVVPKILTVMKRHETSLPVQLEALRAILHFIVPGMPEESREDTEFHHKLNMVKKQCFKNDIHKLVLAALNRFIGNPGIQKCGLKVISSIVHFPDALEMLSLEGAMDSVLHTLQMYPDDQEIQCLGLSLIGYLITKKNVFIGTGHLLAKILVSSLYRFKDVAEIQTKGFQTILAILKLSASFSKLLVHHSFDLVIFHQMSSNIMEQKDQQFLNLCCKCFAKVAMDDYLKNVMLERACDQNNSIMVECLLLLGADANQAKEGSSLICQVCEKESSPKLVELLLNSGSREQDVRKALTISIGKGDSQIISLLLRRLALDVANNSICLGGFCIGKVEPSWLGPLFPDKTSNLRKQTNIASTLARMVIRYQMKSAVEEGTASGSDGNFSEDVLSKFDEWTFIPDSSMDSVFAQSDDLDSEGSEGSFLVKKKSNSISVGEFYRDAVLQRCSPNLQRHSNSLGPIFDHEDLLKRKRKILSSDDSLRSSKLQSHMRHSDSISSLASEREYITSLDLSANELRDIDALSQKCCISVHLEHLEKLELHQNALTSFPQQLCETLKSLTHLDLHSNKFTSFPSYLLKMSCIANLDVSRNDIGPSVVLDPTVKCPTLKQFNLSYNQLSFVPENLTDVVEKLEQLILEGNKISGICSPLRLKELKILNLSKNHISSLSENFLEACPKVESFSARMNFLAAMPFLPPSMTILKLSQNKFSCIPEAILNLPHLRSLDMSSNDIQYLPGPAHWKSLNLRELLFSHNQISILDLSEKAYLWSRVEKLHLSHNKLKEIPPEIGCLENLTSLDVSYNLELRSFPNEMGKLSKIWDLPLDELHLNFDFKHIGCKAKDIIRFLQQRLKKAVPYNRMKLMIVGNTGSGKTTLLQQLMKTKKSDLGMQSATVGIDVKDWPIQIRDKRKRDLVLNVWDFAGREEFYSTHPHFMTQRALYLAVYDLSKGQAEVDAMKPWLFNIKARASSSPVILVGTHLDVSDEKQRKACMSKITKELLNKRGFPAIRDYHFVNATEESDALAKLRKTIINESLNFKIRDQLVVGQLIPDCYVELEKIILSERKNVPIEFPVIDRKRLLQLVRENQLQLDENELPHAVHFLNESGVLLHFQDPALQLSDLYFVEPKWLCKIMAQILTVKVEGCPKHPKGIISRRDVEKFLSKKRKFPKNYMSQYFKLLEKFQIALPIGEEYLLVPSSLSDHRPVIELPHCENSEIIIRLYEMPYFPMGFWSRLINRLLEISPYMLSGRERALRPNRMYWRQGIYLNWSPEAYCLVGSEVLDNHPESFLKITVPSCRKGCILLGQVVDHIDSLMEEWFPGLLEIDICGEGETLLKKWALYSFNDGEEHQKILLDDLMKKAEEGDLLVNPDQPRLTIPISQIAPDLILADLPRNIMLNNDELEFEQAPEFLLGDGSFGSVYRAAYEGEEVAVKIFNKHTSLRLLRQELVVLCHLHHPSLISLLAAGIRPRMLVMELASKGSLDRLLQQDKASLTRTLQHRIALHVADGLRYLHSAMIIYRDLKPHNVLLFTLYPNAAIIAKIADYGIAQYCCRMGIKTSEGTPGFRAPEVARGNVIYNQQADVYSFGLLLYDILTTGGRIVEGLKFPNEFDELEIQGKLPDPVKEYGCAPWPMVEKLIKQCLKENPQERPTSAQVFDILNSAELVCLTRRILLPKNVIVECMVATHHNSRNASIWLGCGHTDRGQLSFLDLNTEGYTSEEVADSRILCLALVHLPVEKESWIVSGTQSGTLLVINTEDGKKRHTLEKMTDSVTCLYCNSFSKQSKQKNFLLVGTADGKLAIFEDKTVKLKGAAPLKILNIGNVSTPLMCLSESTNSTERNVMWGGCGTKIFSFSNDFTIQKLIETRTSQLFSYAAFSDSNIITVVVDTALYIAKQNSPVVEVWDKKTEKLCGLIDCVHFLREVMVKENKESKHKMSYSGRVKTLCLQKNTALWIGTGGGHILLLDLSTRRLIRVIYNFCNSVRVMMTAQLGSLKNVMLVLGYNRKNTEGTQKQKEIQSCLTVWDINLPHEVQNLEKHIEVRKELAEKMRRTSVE

Biological target: LRRK2 (Homo sapiens, UniProt Q5S007)
Assay: LRRK2 affinity (Ki)
Assay type: binding
Settings: LRRK2 affinity (micromolar), Table 1

CNc1nc(Nc2ccc(CN3CCOCC3)cc2OCCF)ncc1Cl [Compound 23, 5-chloro-N2-(2-(2-fluoroethoxy)-4-(morpholinomethyl)phenyl)-N4-methylpyrimidine-2,4-diamine]
Ki: 8.9 nM
